Source: PubChem BioAssay AID588351 (The Scripps Research Institute Molecular Screening Center, 2011)
The entries are a selection whose mix differs from that of the whole data set. Calls of active or inactive are those of the source.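 How the source made its calls: active means mean activation above a set limit taken from the primary screen (cut at about 8% in these data); inactive means the rest.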

Experiment: frataxin promoter-driven luciferase activation – cell-based, luminescence, HEK293 lucGAA850, triplicate, confirmation (AID 588351);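 further: 0% = DMSO wells and 100% = 10 µM SAHA wells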
Details: HEK293 lucGAA850 FXN promoter luciferase reporter, 24 h; at 6 µM; stronger effect = higher value; 100% = activation by SAHA

| SMILES | activation |
| --- | --- |
| O=[N+]([O-])c1cc([N+](=O)[O-])c(NCC2CCS(=O)(=O)C2)c([N+](=O)[O-])c1 (stereo unspecified) | active: 26.9% |
